# ChEMBL document CHEMBL5108065, “Discovery and Characterization of Potent, Efficacious, Orally Available Antimalarial Plasmepsin X Inhibitors and Preclinical Safety Assessment of UCB7362” (J Med Chem, 2022)
# Columns and labels:
# [1] = in vitro; conditions: human, whole blood
# [2] = in vitro; conditions: mouse, whole blood
# [3] = in vitro; conditions: rat, whole blood
# [4] = in vitro; conditions: dog, whole blood
compound,measurement,setting,value
C[C@H]1C[C@@H](N2C(=N)N[C@](C)(c3cccc(NC(=O)c4cccc(C#N)c4)c3Cl)CC2=O)CCO1,blood plasma ratio,[1],0.97
same,blood plasma ratio,[2],1.2
same,blood plasma ratio,[3],1.16
same,blood plasma ratio,[4],1.18
